Test [1] addresses MOR G-protein coupling, rat whole spinal cord membrane homogenates (Rattus norvegicus, UniProt P33535). The test can be described thus: Functional [35S]GTPγS binding assay in rat spinal cord membrane homogenates. To be noted: spinal cord.
Test [2] has as its target MOR G-protein coupling, rat whole brain membrane homogenates (Rattus norvegicus, UniProt P33535). The test can be described thus: Functional [35S]GTPγS binding assay in rat brain membrane homogenates. (In general: GTPγS is a poorly hydrolysed GTP analogue; its binding reports G protein activation.)
Setting [3] is: read-out: EC50 ± SEM, Diabetic, 9 weeks, STZ treated, 9 weeks.
[4] abbreviates: read-out: EC50 ± SEM, Diabetic, 12 weeks, STZ treated, 12 weeks.
Where [5] appears, read: STZ treated, 9 weeks, basal = 100%.
Setting [6] is: STZ treated, 12 weeks, basal = 100%.
The mark [7] stands for this setting: vehicle treated, 9 weeks, basal = 100%.
Setting [8] is: vehicle treated, 12 weeks, basal = 100%.

Protein sequences, listed by entry. Tags and fused reporters are not part of them. Lines headed by an entry give the natural chain unless they say otherwise; changes in a name come on top.
UniProt P33535: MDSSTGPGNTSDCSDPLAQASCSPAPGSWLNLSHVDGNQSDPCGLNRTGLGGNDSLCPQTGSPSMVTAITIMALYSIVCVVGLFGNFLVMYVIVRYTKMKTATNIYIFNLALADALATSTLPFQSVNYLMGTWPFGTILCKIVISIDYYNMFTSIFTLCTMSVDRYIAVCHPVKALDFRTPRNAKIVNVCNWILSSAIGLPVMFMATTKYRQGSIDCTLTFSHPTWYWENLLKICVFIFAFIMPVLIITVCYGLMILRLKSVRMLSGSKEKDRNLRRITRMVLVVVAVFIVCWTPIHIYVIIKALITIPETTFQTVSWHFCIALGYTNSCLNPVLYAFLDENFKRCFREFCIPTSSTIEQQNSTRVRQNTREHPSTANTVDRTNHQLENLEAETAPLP

Where two headings read alike, the source gives them in different places.

The term EC50 denotes the concentration at which the effect is half-maximal. For the substance 14-O-methylmorphine-6-O-sulfate, the EC50 is 43.4 nM in test [1] (setting [3]); 43.5 nM in test [1] (setting [4]); 33.2 nM in test [2] (setting [3]); 27.9 nM in test [2] (setting [4]); 29.5 nM in test [2] (read-out: EC50 ± SEM, Non-diabetic, 9 weeks, vehicle treated, 9 weeks); 35 nM in test [2] (read-out: EC50 ± SEM, Non-diabetic, 12 weeks, vehicle treated, 12 weeks). Also, the entries for the “Emax ± SEM, Diabetic, 9 weeks” value in test [1] (setting [5]) and in test [2] (setting [5]) were 137.3 ± 2.47 (n = 5) % and 140.7 ± 2.1 (n = 6) %, respectively. For the same substance, the entries for the “Emax ± SEM, Diabetic, 12 weeks” value in test [1] (setting [6]) and in test [2] (setting [6]) were 133.8 ± 2.4 (n = 5) % and 146.1 ± 3.22 (n = 5) %, respectively. The “Emax ± SEM, Non-diabetic, 9 weeks” value in test [1] (setting [7]) is 141.4 ± 2 (n = 6) %; in test [2] (setting [7]), 145.7 ± 2.4 (n = 6) %. The “Emax ± SEM, Non-diabetic, 12 weeks” value in test [1] (setting [8]) is 135.5 ± 1.88 (n = 6) %; in test [2] (setting [8]), 148.5 ± 3.59 (n = 4) %.

Values taken from PMC6465774 (Frontiers in Pharmacology, 2019).
